Results reported in PubChem BioAssay (NCI).
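Assay format: 96-well plates, 48-hour exposure. GI50 = concentration required for 50% inhibition of growth. The concentration for full growth arrest is given as TGI.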

Experiments:
Assay in all cases: inhibition of tumour cell growth, NCI panel, 48 h; in the data active = GI50 below about 0.43 µM; inactive = the rest
[1] = tested on: SF-295 CNS
[2] = tested on: HOP-92 NSCLC
[3] = tested on: SF-539 CNS
[4] = tested on: OVCAR-4 ovarian
[5] = tested on: A498 renal
[6] = tested on: KM12 colon
[7] = tested on: K-562 leukemia
[8] = tested on: MOLT-4 leukemia
[9] = tested on: ACHN renal
[10] = tested on: PC-3 prostate
[11] = tested on: TK-10 renal
[12] = tested on: HS 578T breast
[13] = tested on: HT29 colon
[14] = tested on: HCT-15 colon
[15] = tested on: MDA-MB-435
[16] = tested on: M14 melanoma
[17] = tested on: UO-31 renal
[18] = tested on: SNB-75 CNS
[19] = tested on: EKVX NSCLC
[20] = tested on: MCF7 breast
[21] = tested on: U251 CNS
[22] = tested on: HCC-2998 colon
[23] = tested on: DU-145 prostate
[24] = tested on: OVCAR-5 ovarian
[25] = tested on: CAKI-1 renal
[26] = tested on: NCI-H226 lung
[27] = tested on: RXF 393 renal
[28] = tested on: NCI-H322M lung
[29] = tested on: MALME-3M melanoma
[30] = tested on: OVCAR-8 ovarian
[31] = tested on: NCI-H23 lung
[32] = tested on: T-47D breast
[33] = tested on: SW-620 colon
[34] = tested on: SK-MEL-5 melanoma
[35] = tested on: MDA-MB-231 breast
[36] = tested on: NCI-H460 lung
[37] = tested on: BT-549 breast
[38] = tested on: RPMI-8226 leukemia
[39] = tested on: SK-MEL-2 melanoma
[40] = tested on: UACC-257 melanoma
[41] = tested on: OVCAR-3 ovarian
[42] = tested on: HOP-62 NSCLC
[43] = tested on: A549 NSCLC
[44] = tested on: SK-MEL-28 melanoma
[45] = tested on: CCRF-CEM leukemia
[46] = tested on: COLO 205 colon
[47] = tested on: MDA-N
[48] = tested on: UACC-62 melanoma
[49] = tested on: HL-60(TB) leukemia
[50] = tested on: NCI-H522 lung
[51] = tested on: SF-268 CNS
[52] = tested on: SN12C renal
[53] = tested on: 786-0 renal
[54] = tested on: HCT-116 colon
[55] = tested on: SK-OV-3 ovarian
[56] = tested on: SNB-19 CNS
[57] = tested on: IGROV1 ovarian
[58] = tested on: NCI/ADR-RES ovarian
[59] = tested on: LOX IMVI melanoma

CC(O)COc1ccc([As](=O)(O)O)cc1N (stereo not drawn)
inactive: GI50 [1] > 100 µM | GI50 [2] > 100 µM | GI50 [3] > 100 µM | GI50 [4] > 100 µM | GI50 [5] > 100 µM | GI50 [6] > 100 µM | GI50 [7] > 100 µM | GI50 [8] > 100 µM | GI50 [9] > 100 µM | GI50 [10] > 100 µM | GI50 [11] > 100 µM | GI50 [12] > 100 µM | GI50 [13] > 100 µM | GI50 [14] > 100 µM | GI50 [15] > 100 µM | GI50 [16] > 100 µM | GI50 [17] > 100 µM | GI50 [18] > 100 µM | GI50 [19] > 100 µM | GI50 [20] > 100 µM | GI50 [21] > 100 µM | GI50 [22] > 100 µM | GI50 [23] > 100 µM | GI50 [24] > 100 µM | GI50 [25] > 100 µM | GI50 [26] > 100 µM | GI50 [27] > 100 µM | GI50 [28] > 100 µM | GI50 [29] > 100 µM | GI50 [30] > 100 µM | GI50 [31] > 100 µM | GI50 [32] > 100 µM | GI50 [33] > 100 µM | GI50 [34] > 100 µM | GI50 [35] > 100 µM | GI50 [36] > 100 µM | GI50 [37] > 100 µM | GI50 [38] > 100 µM | GI50 [39] > 100 µM | GI50 [40] > 100 µM | GI50 [41] > 100 µM | GI50 [42] > 100 µM | GI50 [43] > 100 µM | GI50 [44] > 100 µM | GI50 [45] > 100 µM | GI50 [46] > 100 µM | GI50 [47] > 100 µM | GI50 [48] > 100 µM | GI50 [49] > 100 µM | GI50 [50] > 100 µM | GI50 [51] > 100 µM | GI50 [52] > 100 µM | GI50 [53] > 100 µM | GI50 [54] > 100 µM | GI50 [55] > 100 µM | GI50 [56] > 100 µM | GI50 [57] > 100 µM | GI50 [58] > 100 µM | GI50 [59] > 100 µM
> 100 µM: TGI [1] | TGI [2] | TGI [3] | TGI [4] | TGI [5] | TGI [6] | TGI [7] | TGI [8] | TGI [9] | TGI [10] | TGI [11] | TGI [12] | TGI [13] | TGI [14] | TGI [15] | TGI [16] | TGI [17] | TGI [18] | TGI [19] | TGI [20] | TGI [21] | TGI [22] | TGI [23] | TGI [24] | TGI [25] | TGI [26] | TGI [27] | TGI [28] | TGI [29] | TGI [30] | TGI [31] | TGI [32] | TGI [33] | TGI [34] | TGI [35] | TGI [36] | TGI [37] | TGI [38] | TGI [39] | TGI [40] | TGI [41] | TGI [42] | TGI [43] | TGI [44] | TGI [45] | TGI [46] | TGI [47] | TGI [48] | TGI [49] | TGI [50] | TGI [51] | TGI [52] | TGI [53] | TGI [54] | TGI [55] | TGI [56] | TGI [57] | TGI [58] | TGI [59]
